Experimental data taken from patent US20100092974A1, “METHODS FOR SCREENING FOR MODULATORS OF CCRL2” (The Board of Trustees of the Leland Stanford Junior …, priority 2008, published 2010).

Target: T1, mCCRL2 (Mus musculus, UniProt O35457)
T1 construct: The coding regions of mCCRL2, huCCRL2, mCRTH2, and huCCR10 were amplified from genomic DNA; expressed in transfected cells
T1 sequence (O35457 1-360): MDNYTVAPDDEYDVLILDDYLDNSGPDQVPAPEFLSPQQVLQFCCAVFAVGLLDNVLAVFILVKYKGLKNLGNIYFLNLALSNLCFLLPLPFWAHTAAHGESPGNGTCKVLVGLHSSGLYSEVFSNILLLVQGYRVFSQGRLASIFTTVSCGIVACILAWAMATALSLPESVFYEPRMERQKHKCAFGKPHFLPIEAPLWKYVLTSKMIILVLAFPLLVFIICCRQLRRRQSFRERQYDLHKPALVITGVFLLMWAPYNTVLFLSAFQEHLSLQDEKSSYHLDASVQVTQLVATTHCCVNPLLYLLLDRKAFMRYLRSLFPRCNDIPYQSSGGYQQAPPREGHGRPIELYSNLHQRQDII
Experiment: 125I-chemerin competition binding, mCCRL2-HA/L1.2 transfectants
Conditions: 1 nM 125I-chemerin; EC50 could not be determined

C[C@H](NC(=O)[C@H](Cc1ccccc1)NC(=O)[C@H](CCC(N)=O)NC(=O)CNC(=O)[C@@H]1CCCN1C(=O)[C@H](Cc1ccccc1)NC(=O)[C@@H](N)Cc1ccc(O)cc1)C(=O)N[C@@H](Cc1ccccc1)C(=O)N[C@@H](CO)C(=O)O [chemerin peptide]
competition for iodinated chemerin in CCRL2 binding: inefficient competitor
